According to patent publication US10130633B2, “Compounds” (BAYER PHARMA AKTIENGESELLSCHAFT, priority 2013, dated 2018):
Where two headings read alike, the source gives them in different places.

Experiments:
[1] = system: HEK293 FOP control reporter cell line; test: HEK293 FOP control reporter assay; type: cell-based, human; conditions: read-out: HEK FOP IC50
Description: (§1) Measurement of luciferase expression was done as described for the constitutive active Wnt assay.
(§2) In a parallel approach, HEK293 cells were cotransfected with the FOP control vector and pcDNA3. The FOP vector is identical to the TOP construct, but it contains instead of functional TCF elements a randomized, non-functional sequence. For this transfection a stable transfected cell line was generated as well, based on selection with Geneticin (1 mg/ml).

[2] = system: constitutive active colorectal cancer cell (CRC) Wnt pathway; test: HCT116 TOPFlash cellular reporter assay (Super TopFlash luciferase), constitutive active Wnt pathway; type: cell-based; conditions: HCT116 TOP reporter cells, 36 hours incubation, luciferase expression
Text: In order to discover and characterize small molecules which inhibit the constitutive active colorectal cancer cell (CRC) Wnt pathway, a cellular reporter assay was employed. The corresponding assay cell was generated by transfection of the colorectal cancer cell line HCT116 (ATCC, #CCL-247) with the Super TopFlash vector (Morin, Science 275, 1997, 1787-1790; Molenaar et al., Cell 86 (3), 1996, 391-399). […] Stable transfectants were generated by cotransfection with pcDNA3 and selection of stable transfected cells with 1 mg/ml G418.

wildtype Wnt pathway = test: HEK293 TOP reporter assay, wildtype Wnt pathway stimulated with Wnt-3a; type: cell-based, human; conditions: HEK293 TOP cells, EC50 concentration of recombinant Wnt-3a, 16 hours; read-out: HEK TOP OncoFlash IC50
Description: as §1
In order to discover and characterize small molecules which inhibit the wildtype Wnt pathway, a cellular reporter assay was employed. […] Stable transfectants were generated by selection with 300 μg/ml Hygromycin.

[3] = system: HCT116 FOP control reporter cell line; test: HCT116 FOPFlash control reporter assay (FOP control vector, non-functional TCF elements); type: cell-based; conditions: HCT116 FOP control reporter cells, 36 hours incubation, luciferase expression
Text: as §2, with “HCT116” for “HEK293”, “well.” for “well, based on selection with Geneticin (1 mg/ml).”

[4] = HEK293 FOP control cells, EC50 concentration of recombinant Wnt-3a, 16 hours

Structure (SMILES): COc1ccc(NC(=O)c2ccc(-c3ccccc3)[nH]2)cc1NC(=O)CN1CCOCC1 [Example 24, N-{4-methoxy-3-[(morpholin-4-ylacetyl)amino]phenyl}-5-phenyl-1H-pyrrole-2-carboxamide]
- IC50 ([1]; Homo sapiens, HEK293, 16 h): 17 µM
- IC50 ([2]; Homo sapiens, HCT-116, 36 h): 1.11 µM
- IC50 (wildtype Wnt pathway): 0.65 µM

Structure (SMILES): CC(C)(C(=O)Nc1cc(C(=O)Nc2ccc(-c3ccccc3F)nc2)ccc1OC(F)(F)F)N1CCOCC1 [Example 11, N-[6-(2-fluorophenyl)pyridin-3-yl]-3-{[2-methyl-2-(morpholin-4-yl)propanoyl]amino}-4-(trifluoromethoxy)benzamide]
- IC50 ([3]; Homo sapiens, HCT-116, 36 h): ≥ 50 µM
- IC50 ([1]; Homo sapiens, HEK293, 16 h): 8.1 µM
- IC50 ([2]; Homo sapiens, HCT-116, 36 h): 0.727 µM
- IC50 (wildtype Wnt pathway): 0.7 µM

Structure (SMILES): Cc1ccc(NC(=O)c2ccc(-c3ccccc3)s2)cc1NC(=O)CN1CCOCC1 [Example 22, N-{4-methyl-3-[(morpholin-4-ylacetyl)amino]phenyl}-5-phenylthiophene-2-carboxamide]
- IC50 ([3]; Homo sapiens, HCT-116, 36 h): ≥ 50 µM
- IC50 ([1]; Homo sapiens, HEK293, 16 h): 24 µM
- IC50 ([2]; Homo sapiens, HCT-116, 36 h): 0.695 µM
- IC50 (wildtype Wnt pathway): 1.1 µM

Structure (SMILES): C[C@@H](C(=O)Nc1cc(C(=O)Nc2ccc(-c3ccccc3F)nc2)ccc1OC(F)(F)F)N1CCOCC1 (single isomer, unassigned) [Example 8, N-[6-(2-fluorophenyl)pyridin-3-yl]-3-{[(2S)-2-(morpholin-4-yl)propanoyl]amino}-4-(trifluoromethoxy)benzamide or N-[6-(2-fluorophenyl)pyridin-3-yl]-3-{[(2R)-2-(morpholin-4-yl)propanoyl]amino}-4-(trifluoromethoxy)benzamide]
- IC50 [3]: 8.35 µM
- IC50 [1, 4]: 8.1 µM
- IC50 [2]: 0.051 µM
- IC50 (wildtype Wnt pathway): 0.13 µM

Structure (SMILES): C[C@H](C(=O)Nc1cc(C(=O)Nc2ccc(-c3ccc(N)cc3)nc2)ccc1OC(F)(F)F)N1CCOCC1 (single isomer, unassigned) [Example 117, N-[6-(4-aminophenyl)pyridin-3-yl]-3-{[(2R)-2-(morpholin-4-yl)propanoyl]amino}-4-(trifluoromethoxy)benzamide or N-[6-(4-aminophenyl)pyridin-3-yl]-3-{[(2S)-2-(morpholin-4-yl)propanoyl]amino}-4-(trifluoromethoxy)benzamide]
- IC50 [3]: 44.5 µM
- IC50 [1, 4]: 10 µM
- IC50 [2]: 0.018 µM
- IC50 (wildtype Wnt pathway): 0.014 µM

Structure (SMILES): C[C@@H](C(=O)Nc1cc(C(=O)Nc2ccc(-c3ccc(N)cc3)nc2)ccc1OC(F)(F)F)N1CCOCC1 (single isomer, unassigned) [Example 118, N-[6-(4-aminophenyl)pyridin-3-yl]-3-{[(2R)-2-(morpholin-4-yl)propanoyl]amino}-4-(trifluoromethoxy)benzamide or N-[6-(4-aminophenyl)pyridin-3-yl]-3-{[(2S)-2-(morpholin-4-yl)propanoyl]amino}-4-(trifluoromethoxy)benzamide]
- IC50 [1, 4]: 16 µM
- IC50 [2]: 0.0126 µM

Structure (SMILES): CC(C(=O)Nc1cc(C(=O)Nc2ccc(-c3cccc(F)c3)nc2)ccc1OC(F)(F)F)N1CC2CCC(C1)O2 (stereo not drawn) [Example 70, N-[6-(3-fluorophenyl)pyridin-3-yl]-3-{[2-(8-oxa-3-azabicyclo[3.2.1]oct-3-yl)propanoyl]amino}-4-(trifluoromethoxy)benzamide]
- IC50 ([1]; Homo sapiens, HEK293, 16 h): 6.3 µM
- IC50 [2]: 0.024 µM
- IC50 (wildtype Wnt pathway): 0.085 µM
